Laboratory results reported in patent US20240067944A1 (published 2024).

Tested on: human plasma-derived FX (Haematologic Technologies Inc, USA)

**Q.** How did the KM (nM) of FX activation by free FIXa (10 nM) on phospholipid vesicles turn out when “human plasma-derived FIXa (Haematologic Technologies Inc, USA)” was run?
**A.** 282 nM

**Q.** And the kcat/KM (1/(min * nM)) of FX activation by free FIXa (10 nM)?
**A.** 2000 M⁻¹ s⁻¹
